Source: PubChem BioAssay (several laboratories)
In the library only some 4.2% were active in any assay of this set; here they are far more common.
UUG fidelity = modulators of yeast start codon fidelity, primary screen, whole organism, S. cerevisiae, single point, plate reader | S. cerevisiae UUG-firefly luciferase reporter, luminescence/redox ratio | activity score, % at 18.7 µM | hit rate 0.13% among 350,000;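 active = replicate mean at a twofold rise or more, about +100% in these data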;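 note: firefly luciferase made from a UUG start codon reports start codon fidelity; reporter light over untreated wells divided by growth signal over untreated wells; some hits fall short of that in this replicate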
MC4R barr agon = agonists of human melanocortin 4 receptor (MC4R) beta-arrestin | P32245 | U2OS MC4R beta-arrestin complementation, luminescence; percent of melanotan II response, DMSO zero | activation, % at 8.9 µM | actives 0.98% (n = 360,000);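 active = activation above a per-plate cutoff, the mean activation of sample wells on that plate plus 3 SD, cut at about 8% in these data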
MC4R antagonist = antagonists of human melanocortin 4 receptor (MC4R) | AID 540295 | actives 0.48% (n = 360,000) | MC4R-expressing cells, MTII-stimulated cAMP, LANCE TR-FRET | inhibition, % at 6.5 µM | P32245;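 active = inhibition above its plate's cutoff, the mean of tested wells on that plate plus 3 SD, cut at about 29% in these data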
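material = U2OS cells stably expressing human melanocortin 4 receptor (MC4R) | also added = Melanotan II challenge | dosing = single nominal compound dose of 6.5 µM | detection = TR-FRET with Eu-cAMP and labeled anti-cAMP, 671 nm | replication = singlicate | timing = compound 30 min, challenge 1 h, detection 1 h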
ALR inh = human ALR oxidase inhibition via reduced H2O2; P55789; purified ALR, DTT oxidation, H2O2 HRP-luminol luminescence; inhibition, % (concentration not given with the values); actives 3.8% (n = 290,000); AID 485317;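 active = mean and each replicate at 75% or more; inconclusive = only one of the two met; inactive = neither met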;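 note: stock transfer was 7.5 nL into about 7.5 µL; 0% = neutral wells and 100% = wells with inactivated enzyme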
NALP1 yeast inh = NALP1 inhibition; S. cerevisiae NALP1/ASC/caspase-1 growth, X-gal OD620, 72 h; inhibition, % at 10 µM; actives 0.61% (n = 280,000); AID 2071; in the data active = inhibition mostly above about 24%, no sharp cut-off; inactive = mostly below about 32%
HDAC3 inh = human HDAC3 inhibition. O15379. recombinant HDAC3, fluorogenic peptide/trypsin coupled, fluorescence. inhibition, % at 8.3 µM. actives 0.15% (n = 320,000). AID 2718; in the data active = inhibition above about 26%, passing the limit was not always enough; inconclusive = no clear call, values can overlap the other calls
A number is an active result; i = inactive; ? = inconclusive; nt = no result.

SMILES	UUG fidelity	MC4R barr agon	MC4R antagonist	ALR inh	NALP1 yeast inh	HDAC3 inh
CCN(CC)c1ccc(NC(=O)C2CCCN(S(=O)(=O)c3cccnc3)C2)c(C)c1 (stereo unspecified)	i	i	i	98.8	i	i
CCN(CCNC(=O)C1CCCN(S(=O)(=O)CC)C1)c1ccccc1 (stereo unspecified)	nt	i	i	98.6	i	i
COc1ccc(NC(=O)C2CCCN(S(=O)(=O)c3cccnc3)C2)c(OC)c1 (stereo unspecified)	i	i	i	nt	i	i
CCN(CCCNC(=O)C1CCC(=O)N1C(C)C)c1cccc(C)c1 (stereo unspecified)	i	i	i	99.1	i	i
CCS(=O)(=O)N1CCCC(C(=O)NCCN(C)Cc2ccccc2)C1 (stereo unspecified)	i	i	i	i	i	i
COc1cc(OC)c(NC(C)C(=O)NCc2ccccc2)cc1Cl (stereo unspecified)	nt	i	i	93.5	i	i
OC[C@H]1O[C@@H](Oc2cc(O)cc(/C=C/c3ccc(O)cc3)c2)[C@H](O)[C@@H](O)[C@@H]1O	nt	nt	nt	98.8	i	i
CNC(=O)c1c(NC(=O)C2=COCCO2)sc2c1CCCC2	i	i	i	80.8	i	i
C[C@@H]1CN([C@@H](C)CO)C(=O)c2cc(N(C)C)ccc2O[C@@H](C)CCCCO[C@@H]1CN(C)S(=O)(=O)c1cn(C)cn1	i	nt	nt	nt	nt	nt
Cc1ccc(OCC(=O)NC2CCCCCC2)cc1C	i	i	i	i	i	i
Cc1cccc(OCC(=O)Nc2cccc(O)c2)c1	i	i	i	i	i	i
CNC(=S)NNC(=O)COc1ccc(C)c(C)c1	nt	i	i	89.7	i	i
Cc1ccc(OCC(=O)Nc2cccc(O)c2)cc1C	i	i	i	98.4	i	i
C[C@@H](NC(=O)C[C@@H]1C=C[C@@H](NC(=O)C2CCC2)[C@@H](CO)O1)c1ccccc1	i	nt	nt	nt	nt	nt
COc1ccc(S(=O)(=O)Nc2ccc3c(c2)C(=O)N([C@H](C)CO)C[C@@H](C)[C@H](CN(C)Cc2ccc(Cl)c(Cl)c2)OCCCC[C@H](C)O3)cc1	i	nt	nt	nt	nt	nt
O=C(Cc1ccccn1)NCC[C@H]1CC[C@H](NS(=O)(=O)c2ccc(F)cc2)[C@H](CO)O1	i	nt	nt	nt	nt	nt
C/C(=C\c1ccccc1)C(=O)n1nnc2ccccc21	i	i	i	i	i	28.1
N#CC1=C(N)n2c(s/c(=C\c3cccs3)c2=O)=C(C#N)C1c1cccs1 (stereo unspecified)	nt	i	i	99.4	i	i
N#CC1=C(N)n2c(s/c(=C\c3ccco3)c2=O)=C(C#N)C1c1ccco1 (stereo unspecified)	i	i	i	i	nt	i
Cc1ccc(NC(=O)CSCc2ccco2)cc1	nt	i	i	98.9	i	i
Cc1ccc(NC(=O)CSCC(=O)NCc2ccco2)cc1	nt	i	i	i	nt	i
O=C(CNc1ccccc1)Nc1ccc(F)cc1	nt	i	i	i	28.4	i
Cc1ccc(NC(=O)CSCC(=O)NC2=NCCS2)cc1	i	i	i	98.5	nt	i
O=C(O)CSCC(=O)Nc1ccc(C2CCCCC2)cc1	i	i	i	98.4	nt	i
O=C(CNS(=O)(=O)c1ccc(F)cc1)Nc1ccccc1	i	i	i	i	i	nt
SMILES	UUG fidelity	MC4R barr agon	MC4R antagonist	ALR inh	NALP1 yeast inh	HDAC3 inh
Nn1cnnc1SCC(=O)Nc1ccc(C2CCCCC2)cc1	nt	i	i	i	i	i
CCCN(C)C[C@@H]1OCCCC[C@@H](C)Oc2ccc(NS(=O)(=O)c3cn(C)cn3)cc2C(=O)N([C@@H](C)CO)C[C@@H]1C	i	nt	nt	nt	nt	nt
CNC[C@H]1Oc2cc(-c3cncnc3)ccc2S(=O)(=O)N([C@H](C)CO)C[C@@H]1C	i	nt	nt	nt	nt	nt
Cc1ccc(NC(=O)CSCc2ccc(F)cc2)cc1	nt	i	i	92.6	i	i
Cc1ccc(CSCC(=O)NCc2ccc(F)cc2)cc1	nt	i	i	i	i	i
Cc1ccccc1CSCC(=O)NC1CCCC1	i	i	i	nt	i	i
Cc1ccc(NC(=O)CSCC(=O)O)cc1	nt	i	i	97.8	i	i
Cc1ccc(NC(=O)CCC(=O)Nc2ccc(C)cc2)cc1	i	i	i	i	i	i
O=C(CSCc1ccc(F)cc1)NCc1ccc(F)cc1	nt	i	i	nt	27.9	i
O=C(CSCc1ccco1)NC1CCCC1	nt	i	i	98.9	i	i
Cc1ccc(NC(=O)Cc2ccc(F)cc2)cc1	i	i	i	i	i	i
Cc1c(Cl)cccc1NC(=O)c1cc(-c2ccccc2O)n[nH]1	i	9.3	i	i	i	i
Cc1ccccc1OCC(=O)Nc1cccc(Cl)c1C	i	8.6	i	i	i	i
CCOC(=O)N1CCN(C(=O)c2ccccc2NC(=O)c2ccc(Br)cc2)CC1	nt	i	i	i	i	i
CCOC(=O)N1CCN(C(=O)c2ccccc2NC(=O)c2ccc(F)cc2)CC1	i	8.4	i	i	i	i
Cc1ccccc1OCC(=O)Nc1nnc(-c2ccncc2)s1	nt	i	i	86.7	i	i
O=S(=O)(N[C@H]1CC[C@H](CCn2cc(-c3cccc(F)c3)nn2)O[C@H]1CO)c1ccc(Cl)cc1	i	nt	nt	nt	nt	nt
COCC(=O)N(C)C[C@@H]1Oc2cc(C#CCN(C)C)ccc2S(=O)(=O)N([C@H](C)CO)C[C@H]1C	i	nt	nt	nt	nt	nt
Cc1ccccc1OCCC(=O)Nc1ccccc1C(=O)N1CCCCC1	i	i	i	i	nt	i
Cc1ccccc1OCC(=O)Nc1ccccc1C(=O)N1CCCCC1	i	i	i	85.5	i	i
C#CCNC(=O)C1=C[C@@H](c2coc3ccccc3c2=O)C[C@@H](OCc2ccc(CO)cc2)O1	i	i	i	nt	i	35.5
Cc1cccc(Cn2c(C(C)(C)C)cc3cccnc32)c1	i	i	i	i	48.2	i
CCN(CC)CCn1c2c(c(SCC(=O)Nc3ccc(C(C)C)cc3)nc1=O)CCCC2	i	i	i	i	nt	i
CCN(CC)CCn1c2c(c(SCC(=O)Nc3nc(C)cs3)nc1=O)CCC2	i	i	i	98.7	nt	i
CCN(CC)CCCn1c2c(c(SCC(=O)Nc3nc(C)cs3)nc1=O)CCC2	nt	i	i	i	nt	?
CCN(CC)CCn1c2c(c(SCC(=O)Nc3nc(C)cs3)nc1=O)CCCC2	i	i	i	98.0	nt	i
O=C(C[C@H]1C[C@H]2c3cc(NC(=O)Nc4ccccc4)ccc3O[C@H]2[C@@H](CO)O1)NCc1ccccn1	i	nt	nt	nt	nt	nt
